This data set in a line: In vivo PK profile determination in mouse plasma (LC-MS/MS, population-based PK model). The settings on record: male, Swiss athymic nu/nu, in vivo, 10 mg/kg.

Molecules are shown by their SMILES.

Compound `CN(C)CCCOc1ccc(-c2ccc3ncc4c(c3c2)n(C2CCOCC2)c(=O)n4C)cn1` [AZD0156, 8-{6-[3-(Dimethylamino)propoxy]pyridin-3-yl}-3-methyl-1-(tetrahydro-2 H-pyran-4-yl)-1,3-dihydro-2 H-imidazo[4,5-c]quinolin-2-one] gave a concentration at 1 h of 188 nM, a concentration at 2 h of 192 nM, a concentration at 3 h of 174 nM and a concentration at 4 h of 154 nM. Also, the concentration at 5 h was 137 nM, the concentration at 6 h amounted to 122 nM, the concentration at 17 h was 32.6 nM and the concentration at 18 h amounted to 28.8 nM. In addition, the concentration at 19 h came out at 25.7 nM, the concentration at 20 h turned out to be 22.7 nM, the concentration at 21 h came out at 20.2 nM and the concentration at 22 h was 17.8 nM. The same compound came in with a concentration at 23 h of 15.9 nM and a concentration at 24 h of 14.1 nM.
